# Test results reported in paper PMC5329131 (Biochimica et biophysica acta, 2017).
# Sequences of proteins named here, by UniProt entry; tags and fusion partners are left off. A change or cut given only in a name is not applied to a line headed by its entry.
# UniProt P11716: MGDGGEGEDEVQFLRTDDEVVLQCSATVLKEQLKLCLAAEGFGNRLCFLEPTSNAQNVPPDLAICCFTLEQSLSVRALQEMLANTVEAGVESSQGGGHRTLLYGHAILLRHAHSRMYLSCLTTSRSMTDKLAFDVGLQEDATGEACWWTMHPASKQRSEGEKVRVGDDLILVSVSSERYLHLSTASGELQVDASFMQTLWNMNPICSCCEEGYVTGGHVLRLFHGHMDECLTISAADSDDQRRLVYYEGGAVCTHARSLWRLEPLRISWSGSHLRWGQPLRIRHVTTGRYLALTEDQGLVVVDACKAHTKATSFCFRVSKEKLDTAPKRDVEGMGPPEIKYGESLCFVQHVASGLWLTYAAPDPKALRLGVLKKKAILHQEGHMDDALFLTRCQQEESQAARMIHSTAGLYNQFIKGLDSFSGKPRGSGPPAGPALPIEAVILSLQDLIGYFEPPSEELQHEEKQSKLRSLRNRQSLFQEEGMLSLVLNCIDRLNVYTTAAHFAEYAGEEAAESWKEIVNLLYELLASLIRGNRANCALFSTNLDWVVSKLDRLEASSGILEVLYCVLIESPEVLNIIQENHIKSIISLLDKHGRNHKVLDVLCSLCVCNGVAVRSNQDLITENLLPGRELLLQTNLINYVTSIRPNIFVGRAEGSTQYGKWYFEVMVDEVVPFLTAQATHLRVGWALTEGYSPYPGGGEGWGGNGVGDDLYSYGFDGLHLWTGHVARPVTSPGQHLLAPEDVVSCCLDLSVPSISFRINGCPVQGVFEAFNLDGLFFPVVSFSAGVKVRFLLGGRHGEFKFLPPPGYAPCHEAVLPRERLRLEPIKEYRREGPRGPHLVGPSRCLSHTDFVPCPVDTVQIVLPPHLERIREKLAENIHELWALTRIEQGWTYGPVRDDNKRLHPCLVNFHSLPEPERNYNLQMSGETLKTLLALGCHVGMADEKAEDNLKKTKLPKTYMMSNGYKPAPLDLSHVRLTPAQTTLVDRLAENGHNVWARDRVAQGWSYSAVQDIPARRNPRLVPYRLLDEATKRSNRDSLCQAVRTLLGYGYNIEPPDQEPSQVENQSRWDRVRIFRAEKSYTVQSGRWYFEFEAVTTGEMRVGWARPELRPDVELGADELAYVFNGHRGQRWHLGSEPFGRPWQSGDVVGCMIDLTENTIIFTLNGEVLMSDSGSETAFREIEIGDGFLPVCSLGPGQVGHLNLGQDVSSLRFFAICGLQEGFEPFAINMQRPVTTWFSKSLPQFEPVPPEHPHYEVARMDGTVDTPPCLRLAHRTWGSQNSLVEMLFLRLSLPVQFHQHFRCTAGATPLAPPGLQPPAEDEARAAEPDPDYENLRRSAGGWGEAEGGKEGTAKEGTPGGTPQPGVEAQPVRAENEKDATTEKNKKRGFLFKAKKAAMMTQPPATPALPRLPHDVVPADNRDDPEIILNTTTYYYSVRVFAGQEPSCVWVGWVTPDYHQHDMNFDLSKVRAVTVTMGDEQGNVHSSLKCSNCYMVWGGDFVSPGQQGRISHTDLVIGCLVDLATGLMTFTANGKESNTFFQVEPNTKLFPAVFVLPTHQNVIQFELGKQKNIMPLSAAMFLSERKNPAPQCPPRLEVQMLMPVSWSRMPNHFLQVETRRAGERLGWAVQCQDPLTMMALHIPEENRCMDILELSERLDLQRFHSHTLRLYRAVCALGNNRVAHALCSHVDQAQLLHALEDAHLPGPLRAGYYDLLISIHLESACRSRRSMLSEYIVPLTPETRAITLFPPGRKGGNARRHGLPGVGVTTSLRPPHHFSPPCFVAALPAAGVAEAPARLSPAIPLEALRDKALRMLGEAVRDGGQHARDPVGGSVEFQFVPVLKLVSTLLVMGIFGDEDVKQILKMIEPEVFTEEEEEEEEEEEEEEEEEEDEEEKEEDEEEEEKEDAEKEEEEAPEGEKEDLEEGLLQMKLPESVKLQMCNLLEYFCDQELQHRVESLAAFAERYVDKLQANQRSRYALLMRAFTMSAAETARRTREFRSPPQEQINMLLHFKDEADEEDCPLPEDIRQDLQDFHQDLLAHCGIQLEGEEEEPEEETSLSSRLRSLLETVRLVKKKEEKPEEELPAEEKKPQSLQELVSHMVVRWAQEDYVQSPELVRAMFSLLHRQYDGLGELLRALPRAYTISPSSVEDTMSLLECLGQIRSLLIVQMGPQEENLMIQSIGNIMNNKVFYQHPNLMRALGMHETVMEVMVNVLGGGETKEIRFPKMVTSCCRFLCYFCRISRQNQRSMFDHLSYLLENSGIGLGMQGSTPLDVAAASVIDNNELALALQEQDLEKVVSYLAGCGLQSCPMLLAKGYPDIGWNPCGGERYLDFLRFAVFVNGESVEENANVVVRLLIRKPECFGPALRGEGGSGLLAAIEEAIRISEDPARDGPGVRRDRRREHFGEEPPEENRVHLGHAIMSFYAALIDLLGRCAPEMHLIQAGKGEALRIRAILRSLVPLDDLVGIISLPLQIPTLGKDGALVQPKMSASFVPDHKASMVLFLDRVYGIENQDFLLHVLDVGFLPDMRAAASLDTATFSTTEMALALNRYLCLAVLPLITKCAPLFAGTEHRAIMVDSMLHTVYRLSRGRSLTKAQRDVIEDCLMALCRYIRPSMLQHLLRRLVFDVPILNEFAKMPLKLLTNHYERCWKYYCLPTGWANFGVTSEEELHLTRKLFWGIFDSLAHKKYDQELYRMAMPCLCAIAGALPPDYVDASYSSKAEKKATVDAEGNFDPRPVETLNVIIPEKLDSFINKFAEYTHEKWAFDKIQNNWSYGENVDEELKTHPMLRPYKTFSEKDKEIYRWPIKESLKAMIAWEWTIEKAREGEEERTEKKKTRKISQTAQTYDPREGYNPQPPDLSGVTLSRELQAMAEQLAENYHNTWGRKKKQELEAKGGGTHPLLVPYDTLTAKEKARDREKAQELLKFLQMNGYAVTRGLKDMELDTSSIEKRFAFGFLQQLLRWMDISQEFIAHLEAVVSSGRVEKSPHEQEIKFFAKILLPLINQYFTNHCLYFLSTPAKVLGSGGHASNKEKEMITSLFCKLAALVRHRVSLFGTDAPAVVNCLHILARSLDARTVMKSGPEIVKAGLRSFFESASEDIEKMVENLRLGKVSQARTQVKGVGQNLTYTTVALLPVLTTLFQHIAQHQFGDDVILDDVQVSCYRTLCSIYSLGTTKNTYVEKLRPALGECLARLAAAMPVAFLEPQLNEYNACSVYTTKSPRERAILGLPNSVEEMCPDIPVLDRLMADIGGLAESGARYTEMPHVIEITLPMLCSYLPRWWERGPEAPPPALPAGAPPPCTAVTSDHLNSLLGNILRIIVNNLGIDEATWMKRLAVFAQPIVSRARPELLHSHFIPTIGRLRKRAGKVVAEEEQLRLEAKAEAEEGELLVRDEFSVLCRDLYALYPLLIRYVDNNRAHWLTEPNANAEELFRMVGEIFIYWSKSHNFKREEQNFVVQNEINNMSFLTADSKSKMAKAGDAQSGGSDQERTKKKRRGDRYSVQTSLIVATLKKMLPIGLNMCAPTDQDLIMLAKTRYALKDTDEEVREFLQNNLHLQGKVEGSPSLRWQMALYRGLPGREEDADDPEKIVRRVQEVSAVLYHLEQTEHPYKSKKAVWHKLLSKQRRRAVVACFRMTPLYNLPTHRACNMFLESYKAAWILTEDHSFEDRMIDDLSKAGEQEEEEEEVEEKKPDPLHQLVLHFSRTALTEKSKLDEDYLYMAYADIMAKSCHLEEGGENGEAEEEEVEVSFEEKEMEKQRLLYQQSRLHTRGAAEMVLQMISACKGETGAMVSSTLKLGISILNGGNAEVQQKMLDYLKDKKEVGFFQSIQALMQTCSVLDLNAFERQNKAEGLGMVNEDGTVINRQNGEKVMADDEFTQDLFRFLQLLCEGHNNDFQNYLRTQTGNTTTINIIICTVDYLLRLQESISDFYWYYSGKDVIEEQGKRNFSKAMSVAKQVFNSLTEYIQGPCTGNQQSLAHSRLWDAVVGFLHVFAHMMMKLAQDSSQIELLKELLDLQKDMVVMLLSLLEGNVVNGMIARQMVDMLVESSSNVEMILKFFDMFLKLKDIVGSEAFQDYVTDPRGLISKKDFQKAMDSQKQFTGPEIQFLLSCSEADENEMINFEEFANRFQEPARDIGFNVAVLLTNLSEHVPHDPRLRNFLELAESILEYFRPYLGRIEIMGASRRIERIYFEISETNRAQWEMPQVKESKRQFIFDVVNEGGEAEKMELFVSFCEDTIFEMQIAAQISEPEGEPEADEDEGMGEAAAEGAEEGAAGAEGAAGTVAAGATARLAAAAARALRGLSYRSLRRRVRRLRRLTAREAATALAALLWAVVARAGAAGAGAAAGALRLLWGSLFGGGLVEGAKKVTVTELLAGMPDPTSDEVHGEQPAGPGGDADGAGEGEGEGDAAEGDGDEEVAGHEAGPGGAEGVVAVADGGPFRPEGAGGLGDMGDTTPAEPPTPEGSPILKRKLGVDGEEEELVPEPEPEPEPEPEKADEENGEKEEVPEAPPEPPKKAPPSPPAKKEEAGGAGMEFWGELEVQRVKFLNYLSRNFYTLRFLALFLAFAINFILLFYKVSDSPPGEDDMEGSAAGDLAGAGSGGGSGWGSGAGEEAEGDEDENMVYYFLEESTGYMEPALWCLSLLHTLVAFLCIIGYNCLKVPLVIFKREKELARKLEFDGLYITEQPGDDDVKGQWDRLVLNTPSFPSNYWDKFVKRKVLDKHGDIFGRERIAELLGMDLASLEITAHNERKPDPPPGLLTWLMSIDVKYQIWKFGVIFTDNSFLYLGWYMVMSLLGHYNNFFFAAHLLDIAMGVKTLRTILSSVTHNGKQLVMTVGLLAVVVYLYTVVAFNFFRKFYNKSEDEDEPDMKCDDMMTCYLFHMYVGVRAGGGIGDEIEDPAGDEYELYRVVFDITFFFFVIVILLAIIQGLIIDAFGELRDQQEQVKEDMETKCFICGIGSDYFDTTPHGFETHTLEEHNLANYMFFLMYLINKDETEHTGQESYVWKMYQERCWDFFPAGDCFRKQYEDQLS
# Molecular target: skeletal RyR (RyR1) (Oryctolagus cuniculus, UniProt P11716)
# Type: binding, rabbit
# Conditions: estimate of purity of heavy SR vesicles
substance,measurement,value
[^3H]ryanodine,[3H]ryanodine binding of heavy SR vesicles,10-15 pmoles/mg protein
